Sequences of proteins named here, by UniProt entry; tags and fusion partners are left off.
UniProt Q86U44, whole entry: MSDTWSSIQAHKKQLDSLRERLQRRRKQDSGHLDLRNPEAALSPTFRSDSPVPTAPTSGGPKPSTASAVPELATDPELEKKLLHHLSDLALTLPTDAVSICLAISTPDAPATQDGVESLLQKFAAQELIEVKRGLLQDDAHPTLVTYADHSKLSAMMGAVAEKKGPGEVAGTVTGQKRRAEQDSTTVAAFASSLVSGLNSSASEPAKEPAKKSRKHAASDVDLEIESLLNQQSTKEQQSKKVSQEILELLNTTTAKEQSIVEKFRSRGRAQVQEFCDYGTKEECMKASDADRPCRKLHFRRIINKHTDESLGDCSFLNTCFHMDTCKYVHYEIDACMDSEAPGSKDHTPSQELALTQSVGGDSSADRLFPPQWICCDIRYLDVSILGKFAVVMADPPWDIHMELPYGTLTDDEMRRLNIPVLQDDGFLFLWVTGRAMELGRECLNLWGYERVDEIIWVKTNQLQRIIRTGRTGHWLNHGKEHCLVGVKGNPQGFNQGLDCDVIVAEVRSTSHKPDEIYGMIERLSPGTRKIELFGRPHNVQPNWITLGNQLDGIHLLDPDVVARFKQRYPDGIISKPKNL
UniProt Q9HCE5, whole entry partner: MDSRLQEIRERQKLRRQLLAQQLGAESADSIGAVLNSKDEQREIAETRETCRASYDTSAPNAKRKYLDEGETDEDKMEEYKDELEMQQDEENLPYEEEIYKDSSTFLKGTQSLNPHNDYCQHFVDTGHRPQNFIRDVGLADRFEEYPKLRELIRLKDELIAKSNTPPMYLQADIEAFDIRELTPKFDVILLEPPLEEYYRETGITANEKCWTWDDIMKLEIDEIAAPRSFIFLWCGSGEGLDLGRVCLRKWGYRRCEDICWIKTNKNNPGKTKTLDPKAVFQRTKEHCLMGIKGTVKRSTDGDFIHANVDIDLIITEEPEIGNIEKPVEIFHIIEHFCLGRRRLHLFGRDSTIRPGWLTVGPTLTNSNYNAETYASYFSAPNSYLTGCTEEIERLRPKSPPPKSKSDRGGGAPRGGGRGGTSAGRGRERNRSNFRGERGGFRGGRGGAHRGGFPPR

According to patent US20240139189A1, “N6-ADENOSINE-[…] INHIBITORS IN CANCER TREATMENT” (priority 2021, published 2024):

Target: METTL3 (Homo sapiens (Human), UniProt Q86U44)
Experiment: TR-FRET biochemical assay (time resolved-Förster resonance energy transfer)
Conditions: for LLE (lipophilic ligand efficiency, pIC50-logP): calculated with DataWarrior

| Structure (SMILES) | LLE (lipophilic ligand efficiency, pIC50-logP) | LE (ligand efficiency) | potency reduction / loss (relative to parent compound) [fold] |
| --- | --- | --- | --- |
| CNc1cc(N2CCC(O)(CNc3ccc(CN4CCC(C)(C)CC4)cn3)CC2)ncn1 | 3.2 | – | – |
| CNc1cc(N2CCC3(CC2)CN(c2ccc(CN4CCC(C)(C)CC4)cc2)CC(=O)N3C)ncn1 | 3 | 0.22 kcal.mol^-1.heavy atom count^-1 | 19 |
| CNc1cc(N2CCC(O)(CNc3ccc(CN4CCC(C)(C)CC4)cc3)CC2)ncn1 | 2.5 | – | – |
| CNc1cc(N2CCC(O)(CNc3ccc(CN4CCC(C)(C)CC4)nc3)CC2)ncn1 | 3.4 | – | – |
